# In PubChem BioAssay AID818 (SRMLSC, 2007):
# The entries are a selection whose mix differs from that of the whole data set. Activity calls are given as the source filed them.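 The calls were made as follows: active = viability at or under a set limit, the compound median less 4 SD (cut at about 6% in these data); inactive = the rest.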
# Test: primary screen for growth suppressors in beta-catenin knockout HCT116 cells (colon tumor, human) (AID 818);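 also: 0% = Hyamine 1622 control at 20 µM and 100% = untreated cell control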
# Conditions: CellTiter-Glo, 60 h, at 10 µM, stronger effect = lower value
row,Compound,viability
1,c1ccc(CN2CCC(Nc3ccccc3)CC2)cc1,inactive: 90.3%
2,N/C(=N\O)c1c(N)no[n+]1[O-],inactive: 92.5%
3,O=C(OC1CN2CCC1CC2)C1c2ccccc2C=Cc2ccccc21 (stereo not drawn),inactive: 65.6%
4,CCOc1ncccc1C(=O)NCC1(N2CCOCC2)CCCCC1,inactive: 91.4%
5,CCC(CO)(C(=O)OC1CN2CCC1CC2)c1ccccc1 (stereo not drawn),inactive: 103%
6,Fc1ccccc1NC1CCN(Cc2ccccc2)CC1,inactive: 80%
7,CCN1CCC(Nc2cccc(F)c2)CC1,inactive: 100%
8,COc1ccc(NC2CCN(CCc3ccccc3)CC2)c(OC)c1,inactive: 89.1%
9,O=C(NCC1(N2CCOCC2)CCCCC1)c1cc2ccccc2o1,inactive: 94.1%
10,O=C(OC1CN2CCC1CC2)C1c2ccccc2Oc2ccccc21 (stereo not drawn),inactive: 102%
11,N#CC1(Nc2ccccc2)CCN(CCc2ccccc2)CC1,inactive: 96.8%
12,O=C(NCC1(N2CCOCC2)CCCCC1)c1cc(=O)[nH]c2ccccc12,inactive: 80.1%
13,CN1CCN(CCOC(=O)C(O)(c2ccccc2)c2ccccc2)CC1,inactive: 105%
